Results from patent publication US20250108034A1, “EYE DROP FORMULATION” (priority 2021, published 2025).

Assay: Solubility of ASP-CD in physiological saline solution with benzalkonium chloride
Assay type: physicochemical
Conditions: 35° C., BC 0.004 and 0.008%
Experimental: Excess amounts of ASP were added to 5 mL of physiological saline solutions containing increasing concentrations of CD in the 1-20 mM range in sealed glass vials. Different concentration of benzalkonium chloride (BC) (0.004 and 0.008%) as preservative agent was added to the formulation The obtained suspensions were electromagnetically stirred (500 rpm) at constant temperature (35+0.5° C.) until equilibrium (24 h). Then, aliquots were withdrawn, centrifuged using a Hermle Z323K high performance refrigerated centrifuge (Hermle AG, Goss-heim, Germany) for 30 min at 16,000 rpm to separate solid ASP crystals from ASP-CD solution and ASP concentration was assayed with HPLC-DAD.
The determination of ASP concentration was performed with HPLC using an Agilent 1260 (Agilent Technologies, Santa Clara, USA). As stationary phase a Zorbax Eclipse© C18 column 100×4.6 mm, 5 μm (Phenomenex, Torrance, CA, USA) was applied. Isocratic elution with purified water and methanol 10:90 (v/v) was applied for 6 min at a flow rate of 1.0 mL/min at 25° C. 10 μL of the samples were injected to determine the ASP concentration. The chromatograms were detected at 255 nm using UV-VIS diode array detector. Data were evaluated using ChemStation B.04.03. […] The linear regression of the calibration line was 0.9998 the limit of detection (LOD) and quantification (LOQ) was 1.11 μg/ml and 3.33 μg/ml, respectively.

## benzalkonium chloride [BC]
  Effect of BC on ASP solubility: negative effect
